Laboratory results reported in US20190315864A1.

Chains of the proteins cited; added tags and fusions are not shown. A line that says so, or that is headed by a name, gives the form on record, which may keep a tag or linker.
CTLA4-Fc fusion protein (human), one chain, as listed by the source limits assumed: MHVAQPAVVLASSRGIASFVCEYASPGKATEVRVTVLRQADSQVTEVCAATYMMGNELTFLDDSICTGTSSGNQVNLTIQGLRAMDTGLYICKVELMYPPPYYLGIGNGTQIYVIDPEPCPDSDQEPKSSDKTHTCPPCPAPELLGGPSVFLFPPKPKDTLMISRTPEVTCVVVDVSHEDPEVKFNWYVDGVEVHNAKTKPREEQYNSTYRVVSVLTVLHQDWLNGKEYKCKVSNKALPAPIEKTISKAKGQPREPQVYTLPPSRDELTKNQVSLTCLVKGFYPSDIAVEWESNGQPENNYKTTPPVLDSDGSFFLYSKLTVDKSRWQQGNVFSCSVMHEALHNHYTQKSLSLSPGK

Assays:
[1] = biological target: CTLA4-Fc fusion protein (human)
[2] = biological target: CTLA4-Fc fusion protein (human); experiment: ELISA: plate coated with the antibody at 0.5 µg/well, CTLA4-Fc-Biotin titrated, SA-HRP, OD405; value is C of the 4-parameter fit in the table under the plot; x axis has no unit on the sheet, ng/mL by paragraph 218

- EC50 (C of the 4-parameter fit), IL-2 in the supernatant of Jurkat T cells with anti-CD3, Raji cells and 100 ng/mL CTLA4-Fc [1]: 0.0125 µg/mL
- EC50 [2]: 0.0467 µg/mL
Substance: 10D1 (anti-CTLA4 antibody ipilimumab from BMS, made in house)
